Assay results as given in ChEMBL document CHEMBL5370537, “Aporphines: A privileged scaffold in CNS drug discovery” (Eur J Med Chem, 2023).

Sequences of proteins named here, by UniProt entry; tags and fusion partners are left off. A change or cut given only in a name is not applied to a line headed by its entry.
UniProt O42275: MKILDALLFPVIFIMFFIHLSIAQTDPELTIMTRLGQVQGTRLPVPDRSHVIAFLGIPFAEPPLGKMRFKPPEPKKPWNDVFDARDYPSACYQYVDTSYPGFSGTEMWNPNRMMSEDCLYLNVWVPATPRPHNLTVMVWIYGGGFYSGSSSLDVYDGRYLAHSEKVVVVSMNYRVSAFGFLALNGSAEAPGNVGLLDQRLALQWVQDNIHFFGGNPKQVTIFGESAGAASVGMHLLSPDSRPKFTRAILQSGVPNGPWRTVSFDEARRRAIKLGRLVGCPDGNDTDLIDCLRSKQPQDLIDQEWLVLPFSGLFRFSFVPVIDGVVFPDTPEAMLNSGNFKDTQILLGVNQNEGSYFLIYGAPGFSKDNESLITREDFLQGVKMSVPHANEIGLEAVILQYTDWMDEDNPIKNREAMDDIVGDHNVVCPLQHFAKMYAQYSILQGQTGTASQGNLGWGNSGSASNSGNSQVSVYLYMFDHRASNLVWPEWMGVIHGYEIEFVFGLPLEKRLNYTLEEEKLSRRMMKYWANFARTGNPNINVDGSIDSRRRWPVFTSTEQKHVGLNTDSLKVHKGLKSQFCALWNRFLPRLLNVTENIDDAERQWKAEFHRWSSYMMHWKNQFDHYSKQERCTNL

Legend:
Conditions in all cases: time 15.0 min
[1] = target: Acetylcholinesterase (Electrophorus electricus) (UniProt O42275); experiment: Potency index, ratio of (R)-Stephanine IC50 to test compound IC50 for inhibition of Electrophorus electricus AChE using ATCI as substrate pre-incubated for 10 mins followed by substrate addition measured after 5 mins by microplate reader analysis
[2] = target: Acetylcholinesterase (Electrophorus electricus) (UniProt O42275); experiment: Potency index, ratio of (R)-Roemerine IC50 to test compound IC50 for inhibition of Electrophorus electricus AChE using ATCI as substrate pre-incubated for 10 mins followed by substrate addition measured after 5 mins by microplate reader analysis
[3] = target: Acetylcholinesterase (Electrophorus electricus) (UniProt O42275); experiment: Potency index, ratio of (S)-Dicentrine IC50 to test compound IC50 for inhibition of Electrophorus electricus AChE using ATCI as substrate pre-incubated for 10 mins followed by substrate addition measured after 5 mins by microplate reader analysis

Measured: Ratio IC50

COc1cccc2c1cc1c3c(cc4c(c32)OCO4)CCN1C
4: all assays above

CN1CCc2cc3c(c4c2c1cc1ccccc14)OCO3 [DEHYDROROEMERINE]
4: all assays above
